What follows are compounds tested against hepatitis C virus RNA dependant polymerase (NS5B) (Hepatitis C virus genotype 1b, UniProt P26663) (assay: biochemical). Conditions: IC50, HCV NS5B polymerase, 10 nM enzyme, 1.5 hours at room temperature.

SMILES	IC50
O=C(N[C@@H](Cc1c[nH]c2ccc(O)cc12)c1cscn1)c1ccc2c(C3CCCCC3)c(-c3ccccc3)[nH]c2c1 [Entry 1001]	1000 to 10000 nM
O=C(N[C@@H](Cc1c[nH]c2ccc(O)cc12)C(=O)O)c1ccc2c(C3CCCCC3)c(-c3ccccc3)[nH]c2c1 [Entry 1002]	< 500 nM
O=C(N[C@@H](Cc1c[nH]c2ccc(O)cc12)c1cscn1)c1ccc2c(C3CCCCC3)c(-c3ccccn3)[nH]c2c1 [Entry 1003]	1000 to 10000 nM
O=C(O)/C=C/c1ccc(Nc2ccccc2NC(=O)c2ccc3c(C4CCCCC4)c(-c4ccoc4)[nH]c3c2)cc1 [Entry 1005]	1000 to 10000 nM
CC(=O)Nc1ccc(-c2c(C3CCCC3)c3ccc(C(=O)NC(C)(C)C(=O)Nc4cccc5c4cc(C(=O)O)n5C)cc3n2C)cc1C [Entry 1006]	< 500 nM
O=C(O)COc1ccc2[nH]cc(C[C@H](NC(=O)c3ccc4c(C5CCCCC5)c(-c5ccoc5)n(CCCOc5ccc(C(=O)c6ccccc6)cc5)c4c3)C(=O)O)c2c1 [Entry 1007]	1000 to 10000 nM
Cn1c(-c2cccc(NC(=O)c3ccc(C(=O)c4ccccc4)cc3)c2)c(C2CCCCC2)c2ccc(C(=O)N[C@@H](Cc3c[nH]c4ccc(OCC(=O)O)cc34)C(=O)O)cc21 [Entry 1008]	500 to 1000 nM
Cn1c(-c2ccc(NC(=O)c3ccc(C(=O)c4ccccc4)cc3)cn2)c(C2CCCCC2)c2ccc(C(=O)N[C@@H](Cc3c[nH]c4ccc(OCC(=O)O)cc34)C(=O)O)cc21 [Entry 1009]	1000 to 10000 nM
Cn1c(-c2ccc(C(=O)c3ccccc3)cc2)c(C2CCCCC2)c2ccc(C(=O)N[C@@H](Cc3c[nH]c4ccc(OCC(=O)O)cc34)C(=O)O)cc21 [Entry 1011]	500 to 1000 nM
Cn1c(-c2ccc(C(=O)c3ccccc3)cn2)c(C2CCCCC2)c2ccc(C(=O)N[C@@H](Cc3c[nH]c4ccc(OCC(=O)O)cc34)C(=O)O)cc21 [Entry 1012]	< 500 nM
Cc1c(C(=O)O)sc2ccc(NC(=O)[C@]3(NC(=O)c4ccc5c(C6CCCC6)c(-c6ccccn6)n(C)c5c4)CCN(C)C3)cc12 [Entry 1013]	< 500 nM
Cn1c(-c2ccccn2)c(C2CCCC2)c2ccc(C(=O)NC3(c4nc5ccc(C=CC(=O)O)cc5[nH]4)CCCC3)cc21 [Entry 1014]	< 500 nM
Cn1c(-c2ccccn2)c(C2CCCC2)c2ccc(C(=O)NC3(/C=C/c4ccc(/C=C/C(=O)O)cc4)CCCC3)cc21 [Entry 1015]	< 500 nM
Cn1c(-c2ccccn2)c(C2CCCC2)c2ccc(C(=O)NC(C)(C)/C=C/c3ccc(/C=C/C(=O)O)cc3)cc21 [Entry 1016]	< 500 nM
CC(NC(=O)c1ccc2c(C3CCCC3)c(-c3ccccn3)n(C)c2c1)c1nc2ccc(C=CC(=O)O)cc2[nH]1 (stereo not shown) [Entry 1017]	< 500 nM
COc1ccc(CNC(=O)c2ccc3c(C4CCCCC4)c(-c4ccccn4)[nH]c3c2)cc1OC [Entry 1019]	1000 to 10000 nM
CN1CCC(NC(=O)c2ccc3c(C4CCCC4)c(-c4ccccn4)n(C)c3c2)(c2nc3ccc(C=CC(=O)O)cc3[nH]2)CC1 [Entry 1020]	< 500 nM
CC(NC(=O)c1ccc2c(C3CCCC3)c(-c3ccccn3)n(C)c2c1)c1nc2ccc(C=CC(N)=O)cc2[nH]1 (stereo not shown) [Entry 1021]	< 500 nM
O=C(O)COc1ccc2[nH]cc(C[C@H](NC(=O)c3ccc4c(C5CCCC5)c(-c5ccoc5)sc4c3)C(=O)O)c2c1 [Entry 1022]	< 500 nM
Cc1nc([C@H](Cc2c[nH]c3ccc(O)cc23)NC(=O)c2ccc3c(C4CCCC4)c(-c4ccoc4)sc3c2)cs1 [Entry 1024]	< 500 nM
CN(C)CCC(NC(=O)c1ccc2c(C3CCCC3)c(-c3ccccn3)n(C)c2c1)c1nc2ccc(C=CC(=O)O)cc2[nH]1 (stereo not shown) [Entry 1025]	< 500 nM

SMILES	IC50
Cn1c(-c2ccccn2)c(C2CCCC2)c2ccc(C(=O)NC(C)(C)c3nc(C(=O)O)co3)cc21 [Entry 1026]	500 to 1000 nM
Cn1c(-c2ccccn2)c(C2CCCC2)c2ccc(C(=O)NC3(c4nc5cc(C=CC(N)=O)ccc5[nH]4)CCC3)cc21 [Entry 1027]	< 500 nM
CN1CCC(NC(=O)c2ccc3c(C4CCCC4)c(-c4ccccn4)n(C)c3c2)(c2nc3cc(C=CC(=O)O)ccc3[nH]2)C1 (stereo not shown) [Entry 1028]	< 500 nM
CNC(=O)c1coc(C(C)(C)NC(=O)c2ccc3c(C4CCCC4)c(-c4ccccn4)n(C)c3c2)n1 [Entry 1029]	500 to 1000 nM
Cn1c(-c2ccoc2)c(C2CCCCC2)c2ccc(C(=O)N[C@@]3(C(=O)Nc4ccc(-c5cnc(N)nc5)cc4)CCNC3)cc21 [Entry 1031]	< 500 nM
Cn1c(-c2ccccn2)c(C2=CCCCC2)c2ccc(C(=O)NC3(C(=O)Nc4ccc(/C=C/C(=O)O)cc4)CCC3)cc21 [Entry 1032]	< 500 nM
Cn1c(-c2ccccn2)c(C2=CCCC2)c2ccc(C(=O)NC3(C(=O)Nc4ccc(/C=C/C(=O)O)cc4)CCC3)cc21 [Entry 1033]	500 to 1000 nM
O=C(O)/C=C/c1ccc(NC(=O)C2(NC(=O)c3ccc4c(C5CCCCC5)c(-c5ccccc5)[nH]c4c3)CCCC2)cc1 [Entry 2002]	500 to 1000 nM
O=C(O)/C=C/c1ccc(NC(=O)C2(NC(=O)c3ccc4c(C5CCCCC5)c(Br)[nH]c4c3)CCCC2)cc1 [Entry 2003]	1000 to 10000 nM
C[C@@H](NC(=O)c1ccc2c(C3CCCCC3)c(-c3ccoc3)[nH]c2c1)C(=O)Nc1ccc(/C=C/C(=O)O)cc1 [Entry 2004]	500 to 1000 nM
C/C(=C\c1ccc(NC(=O)C2(NC(=O)c3ccc4c(C5CCCCC5)c(-c5ccoc5)[nH]c4c3)CCCC2)cc1)C(=O)O [Entry 2005]	500 to 1000 nM
Cn1c(-c2ccoc2)c(C2CCCCC2)c2ccc(C(=O)NC3(C(=O)Nc4ccc(/C=C/C(=O)O)cc4)CCCC3)cc21 [Entry 2006]	500 to 1000 nM
O=C(O)Cn1ccc2cc(NC(=O)C3(NC(=O)c4ccc5c(C6CCCCC6)c(-c6ccoc6)[nH]c5c4)CCCC3)ccc21 [Entry 2008]	500 to 1000 nM
C[C@@H](NC(=O)c1ccc2c(C3CCCCC3)c(-c3ccoc3)[nH]c2c1)C(=O)Nc1ccc(/C=C/C(=O)O)cn1 [Entry 2009]	500 to 1000 nM
C=CCn1c(C(=O)O)cc2cc(NC(=O)[C@@H](C)NC(=O)c3ccc4c(C5CCCCC5)c(-c5ccoc5)[nH]c4c3)ccc21 [Entry 2011]	500 to 1000 nM
O=C(NC1(C(=O)Nc2ccc3c(Cl)c(C(=O)O)sc3c2)CCCC1)c1ccc2c(C3CCCCC3)c(-c3ccoc3)[nH]c2c1 [Entry 2013]	500 to 1000 nM
CC#CCn1c(C(=O)O)cc2cc(NC(=O)[C@@H](C)NC(=O)c3ccc4c(C5CCCCC5)c(-c5ccoc5)[nH]c4c3)ccc21 [Entry 2014]	1000 to 10000 nM
CCn1c(C(=O)O)cc2cc(NC(=O)[C@@H](C)NC(=O)c3ccc4c(C5CCCCC5)c(-c5ccoc5)[nH]c4c3)ccc21 [Entry 2015]	500 to 1000 nM
O=C(O)Cn1cnc2ccc(NC(=O)C3(NC(=O)c4ccc5c(C6CCCCC6)c(-c6ccoc6)[nH]c5c4)CCCC3)cc21 [Entry 2016]	1000 to 10000 nM
CC(C)(NC(=O)c1ccc2c(C3CCCCC3)c(-c3ccoc3)[nH]c2c1)C(=O)Nc1ccc(-c2nc(C(=O)O)cs2)cc1 [Entry 2017]	500 to 1000 nM
CC(C)(NC(=O)c1ccc2c(C3CCCCC3)c(-c3ccccc3)[nH]c2c1)C(=O)Nc1ccc(-c2nc(C(=O)O)cs2)cc1 [Entry 2018]	500 to 1000 nM

SMILES	IC50
CC(C)(NC(=O)c1ccc2c(C3CCCCC3)c(-c3ccsc3)[nH]c2c1)C(=O)Nc1ccc(-c2nc(C(=O)O)cs2)cc1 [Entry 2019]	500 to 1000 nM
CCn1c(-c2ccccc2)c(C2CCCCC2)c2ccc(C(=O)NC(C)(C)C(=O)Nc3ccc(/C=C/C(=O)O)cc3)cc21 [Entry 2020]	500 to 1000 nM
CC(C)n1c(-c2ccccc2)c(C2CCCCC2)c2ccc(C(=O)NC(C)(C)C(=O)Nc3ccc(/C=C/C(=O)O)cc3)cc21 [Entry 2022]	1000 to 10000 nM
Cn1cc(C2CCCCC2)c2ccc(C(=O)NC(C)(C)C(=O)Nc3ccc(/C=C/C(=O)O)cc3)cc21 [Entry 2023]	1000 to 10000 nM
CC(C)(NC(=O)c1ccc2c(C3CCCCC3)c(-c3ccoc3)[nH]c2c1)C(=O)Nc1ccc(-c2csc(C(N)=O)n2)cc1 [Entry 2024]	500 to 1000 nM
O=C(O)/C=C/c1ccc(NC(=O)C2(NC(=O)c3ccc4c(C5CCCCC5)c(-c5ccoc5)[nH]c4c3)CCSCC2)cc1 [Entry 2025]	500 to 1000 nM
O=C(O)/C=C/c1ccc(NC(=O)C2(NC(=O)c3ccc4c(C5CCCCC5)c(-c5ccccn5)[nH]c4c3)CCCC2)cc1 [Entry 2033]	500 to 1000 nM
Cn1c(-c2ccccc2)c(C2CCCCC2)c2ccc(C(=O)NC3(C(=O)Nc4ccc(/C=C/C(=O)O)cc4)CCCC3)cc21 [Entry 2034]	< 500 nM
O=C(O)/C=C/c1ccc(NC(=O)C2(NC(=O)c3ccc4c(C5CCCCC5)c(-c5ccccc5)[nH]c4c3)CCCC2)cc1 [Entry 2035]	< 500 nM
O=C(O)/C=C/c1ccc(NC(=O)C2(NC(=O)c3ccc4c(C5CCCCC5)c(-c5ccoc5)[nH]c4c3)CCCC2)cc1 [Entry 2036]	< 500 nM
O=C(O)/C=C/c1ccc(NC(=O)C2(NC(=O)c3ccc4c(C5CCCCC5)c(-c5ccco5)[nH]c4c3)CCCC2)cc1 [Entry 2037]	< 500 nM
O=C(O)/C=C/c1ccc(NC(=O)C2(NC(=O)c3ccc4c(C5CCCCC5)c(-c5ccsc5)[nH]c4c3)CCCC2)cc1 [Entry 2038]	< 500 nM
O=C(O)/C=C/c1ccc(NC(=O)C2(NC(=O)c3ccc4c(C5CCCCC5)c(-c5ccoc5)n(Cc5ccccc5)c4c3)CCCC2)cc1 [Entry 2040]	< 500 nM
O=C(O)/C=C/c1ccc(NC(=O)C2(NC(=O)c3ccc4c(C5CCCCC5)c(-c5cccs5)[nH]c4c3)CCCC2)cc1 [Entry 2042]	< 500 nM
O=C(O)/C=C/c1ccc(NC(=O)C2(NC(=O)c3ccc4c(C5CCCCC5)c(-c5ccoc5)n(Cc5ccncc5)c4c3)CCCC2)cc1 [Entry 2043]	< 500 nM
Cn1c(C(=O)O)cc2cc(NC(=O)C3(NC(=O)c4ccc5c(C6CCCCC6)c(-c6ccoc6)n(Cc6cccc(C(=O)O)c6)c5c4)CCNCC3)ccc21 [Entry 2045]	< 500 nM
Cc1c(C(=O)O)sc2ccc(NC(=O)C3(NC(=O)c4ccc5c(C6CCCCC6)c(-c6ccoc6)[nH]c5c4)CCCC3)cc12 [Entry 2046]	< 500 nM
O=C(NC1(C(=O)Nc2ccc(-c3ccc(C(=O)O)o3)cc2)CCCC1)c1ccc2c(C3CCCCC3)c(-c3ccoc3)[nH]c2c1 [Entry 2048]	< 500 nM
CN1CCC(NC(=O)c2ccc3c(C4CCCCC4)c(-c4ccoc4)[nH]c3c2)(C(=O)Nc2ccc3c(c2)cc(C(=O)O)n3C)CC1 [Entry 2049]	< 500 nM

From US20060160798A1, “Viral polymerase inhibitors” (Boehringer Ingelheim (Canada) Ltd., priority 2001, published 2006)
